# In patent EP3954371B1, “ANTI-ACETYLCHOLINESTERASE ACTIVE COMPOSITION IN CAULIS MAHONIAE AND SCREENING METHOD THEREFOR AND APPLICATION THEREOF” (Shenzhen Institute for Drug Control (Shenzhen Testing …, priority 2019, dated 2021):
# Sequences of proteins named here, by UniProt entry; tags and fusion partners are left off. Residues count along the entry.
# UniProt P22303, 32-614: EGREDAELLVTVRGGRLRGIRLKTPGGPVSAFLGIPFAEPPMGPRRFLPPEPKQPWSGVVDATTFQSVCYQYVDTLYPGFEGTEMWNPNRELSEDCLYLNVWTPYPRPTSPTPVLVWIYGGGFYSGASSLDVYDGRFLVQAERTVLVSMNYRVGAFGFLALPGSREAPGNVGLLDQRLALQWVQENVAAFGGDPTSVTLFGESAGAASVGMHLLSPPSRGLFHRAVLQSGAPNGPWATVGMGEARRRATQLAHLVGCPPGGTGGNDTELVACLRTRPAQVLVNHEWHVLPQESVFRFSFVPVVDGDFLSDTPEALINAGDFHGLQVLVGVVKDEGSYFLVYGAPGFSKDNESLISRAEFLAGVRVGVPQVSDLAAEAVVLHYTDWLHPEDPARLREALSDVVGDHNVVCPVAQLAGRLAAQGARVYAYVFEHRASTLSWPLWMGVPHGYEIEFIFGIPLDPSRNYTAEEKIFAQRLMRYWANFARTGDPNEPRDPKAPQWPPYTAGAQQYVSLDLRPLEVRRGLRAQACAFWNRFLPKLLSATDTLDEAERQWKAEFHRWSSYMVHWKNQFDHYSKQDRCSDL
# Biological target: T1, AChE (Homo sapiens, UniProt P22303)
# T1 construct: purchased Sigma
# Test: biochemical
# Experimental: For the reaction system, see Table 3. The specific steps are described below.
# 140 µL of phosphate buffer (PBS, 0.1 mol/L, pH = 7.4), 20 µL of AChE (0.303 U/mL) and 20 µL of sample solution were added in sequence to a 96-well plate, mixed evenly, and added with 10 µL of DTNB (3.3 mM) and 10 µL of acetylthiocholine iodide (ATCI) (15 mM). They were mixed evenly and incubated for 10 min at 37 °C, then measured absorbance at 405 nm.
# The sample was replaced with PBS in a blank enzyme group. The sample was replaced with PBS in a blank enzyme-free group. The enzyme solution was replaced with PBS in the sample control group.
# The inhibitory rate of the sample against AChE activity is calculated by the following formula: Inhibitory rate = [1−(Asample−Asample control)/(Ablank enzyme−Ablank enzyme−free)] × 100% [formula]
# The median inhibitory concentration of AChE was calculated by testing inhibitory rates at different sample concentrations. […] Table 3 Anti-AChE activity screening method
compound,measurement,value
"COc1ccc2cc3[n+](cc2c1OC)CCc1cc2c(cc1-3)OCO2 [Ber, berberine]",IC50,7.46 µM
